Molecules are shown by their SMILES.

The values below come from patent publication US20260070899A1, “N-(2-(4-CYANOTHIAZOLIDIN-3-YL)-2-OXOETHYL)-QUINOLINE-4-CARBOXAMIDES” (AstraZeneca AB, priority 2022, published 2026).

The assay deals with T1, human Fibroblast activation protein alpha (hFAP) (Homo sapiens, UniProt Q12884).
T1 construct: Proteros, 38-760 (PR-0071); purchased Proteros PR-0071
T1 sequence (Q12884 38-760): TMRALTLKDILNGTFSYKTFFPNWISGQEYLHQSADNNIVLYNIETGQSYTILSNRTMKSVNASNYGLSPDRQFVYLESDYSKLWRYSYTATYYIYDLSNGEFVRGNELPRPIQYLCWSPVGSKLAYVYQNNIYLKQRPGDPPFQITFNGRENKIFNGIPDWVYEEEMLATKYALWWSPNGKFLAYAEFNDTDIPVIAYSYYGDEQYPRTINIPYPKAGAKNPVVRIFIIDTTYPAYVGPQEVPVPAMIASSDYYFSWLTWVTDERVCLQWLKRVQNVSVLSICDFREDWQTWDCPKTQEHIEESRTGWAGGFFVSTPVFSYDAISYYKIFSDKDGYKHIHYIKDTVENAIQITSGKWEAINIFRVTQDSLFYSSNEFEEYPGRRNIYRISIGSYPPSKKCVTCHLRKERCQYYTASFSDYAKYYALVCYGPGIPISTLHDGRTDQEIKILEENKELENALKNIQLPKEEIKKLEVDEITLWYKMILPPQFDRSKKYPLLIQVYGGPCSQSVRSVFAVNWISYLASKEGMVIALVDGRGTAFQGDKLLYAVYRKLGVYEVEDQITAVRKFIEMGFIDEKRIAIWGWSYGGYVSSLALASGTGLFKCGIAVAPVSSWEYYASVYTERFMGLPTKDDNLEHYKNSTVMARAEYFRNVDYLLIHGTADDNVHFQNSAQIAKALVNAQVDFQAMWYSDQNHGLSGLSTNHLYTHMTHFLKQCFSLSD
The experiment in a line: hFAP inhibition assay (tight binders). The assay is classed as biochemical. Particulars: Ala-Pro-AMC 20 μM, n = 1 or geometric mean (n = 2-5). How it is done: Data were analyzed in Genedata Screener®.
Turning to `CC1(C)CC(Oc2ccc3nccc(C(=O)NCC(=O)N4CSC[C@H]4C#N)c3c2)CCO1` (mixture of isomers) [Example 9, N-(2-((R)-4-Cyanothiazolidin-3-yl)-2-oxoethyl)-6-(((RS)-2,2-dimethyltetrahydro-2H-pyran-4-yl)oxy)quinoline-4-carboxamide], inhibition was half-maximal at 0.25 nM (IC50). `CC(c1ccc2nccc(C(=O)NCC(=O)N3CSC[C@H]3C#N)c2c1)c1ncccc1F` (mixture of isomers) [Example 12, N-(2-((R)-4-Cyanothiazolidin-3-yl)-2-oxoethyl)-6-((RS)-1-(3-fluoropyridin-2-yl)ethyl)quinoline-4-carboxamide] had a half-inhibitory concentration (IC50) of 0.09 nM. In the case of `CC(O)c1ccc2nccc(C(=O)NCC(=O)N3CSC[C@H]3C#N)c2c1` (mixture of isomers) [Example 25, N-(2-((R)-4-Cyanothiazolidin-3-yl)-2-oxoethyl)-6-((RS)-1-hydroxyethyl)quinoline-4-carboxamide] it was 0.25 nM; in that of `COC(C)c1ccc2nccc(C(=O)NCC(=O)N3CSC[C@H]3C#N)c2c1` (mixture of isomers) [Example 26, N-(2-((R)-4-Cyanothiazolidin-3-yl)-2-oxoethyl)-6-((RS)-1-methoxyethyl)quinoline-4-carboxamide], 0.45 nM. The compound `COCC(OC)c1ccc2nccc(C(=O)NCC(=O)N3CSC[C@H]3C#N)c2c1` (mixture of isomers) [Example 30, N-(2-((R)-4-Cyanothiazolidin-3-yl)-2-oxoethyl)-6-((RS)-1,2-dimethoxyethyl)quinoline-4-carboxamide] had an IC50 of 0.4 nM. On to `N#C[C@@H]1CSCN1C(=O)CNC(=O)c1ccnc2ccc(C3CCCCO3)cc12` (mixture of isomers) [Example 32, N-(2-((R)-4-Cyanothiazolidin-3-yl)-2-oxoethyl)-6-((RS)-tetrahydro-2H-pyran-2-yl)quinoline-4-carboxamide], for which half-maximal inhibition (IC50) required 0.21 nM.

The compound `N#C[C@@H]1CSCN1C(=O)CNC(=O)c1ccnc2ccc(C3COCCO3)cc12` (mixture of isomers) [Example 33, N-(2-((R)-4-Cyanothiazolidin-3-yl)-2-oxoethyl)-6-((RS)-1,4-dioxan-2-yl)quinoline-4-carboxamide] showed an IC50 of 0.2 nM.

Regarding `N#C[C@@H]1CSCN1C(=O)CNC(=O)c1ccnc2ccc(C3CCCO3)cc12` (mixture of isomers) [Example 34, N-(2-((R)-4-Cyanothiazolidin-3-yl)-2-oxoethyl)-6-((RS)-tetrahydrofuran-2-yl)quinoline-4-carboxamide], 0.14 nM corresponded to half-maximal inhibition (IC50).

In the case of `N#C[C@@H]1CSCN1C(=O)CNC(=O)c1ccnc2ccc(COC3CCOC3)cc12` (mixture of isomers) [Example 35, N-(2-((R)-4-Cyanothiazolidin-3-yl)-2-oxoethyl)-6-((((RS)-tetrahydrofuran-3-yl)oxy)methyl)quinoline-4-carboxamide], the IC50 came out at 0.26 nM.

As to `Cc1cc(C(C)c2ccc3nccc(C(=O)NCC(=O)N4CSC[C@H]4C#N)c3c2)no1` (mixture of isomers) [Example 46, N-(2-((R)-4-Cyanothiazolidin-3-yl)-2-oxoethyl)-6-((RS)-1-(5-methylisoxazol-3-yl)ethyl)quinoline-4-carboxamide], the IC50 came to 0.13 nM. `CC(c1ccc2nccc(C(=O)NCC(=O)N3CSC[C@H]3C#N)c2c1)c1ccc(Cl)cn1` (mixture of isomers) [Example 48, 6-((RS)-1-(5-Chloropyridin-2-yl)ethyl)-N-(2-((R)-4-cyanothiazolidin-3-yl)-2-oxoethyl)quinoline-4-carboxamide]: the IC50 came to 0.11 nM. `Cc1cc(C(C)c2ccc3nccc(C(=O)NCC(=O)N4CSC[C@H]4C#N)c3c2)on1` (mixture of isomers) [Example 49, N-(2-((R)-4-Cyanothiazolidin-3-yl)-2-oxoethyl)-6-((RS)-1-(3-methylisoxazol-5-yl)ethyl)quinoline-4-carboxamide] showed an IC50 of 0.13 nM. Turning to `CC(c1ccnc(C(F)(F)F)c1)c1ccc2nccc(C(=O)NCC(=O)N3CSC[C@H]3C#N)c2c1` (mixture of isomers) [Example 52, N-(2-((R)-4-Cyanothiazolidin-3-yl)-2-oxoethyl)-6-((RS)-1-(2-(trifluoromethyl)pyridin-4-yl)ethyl)quinoline-4-carboxamide], the IC50 was determined as 0.077 nM.
